For assay [1], the species on record is Homo sapiens. Put plainly: Selectivity ratio of IC50 for inhibition of His6-tagged p97 C522A mutant (unknown origin) expressed in Escherichia coli BL21 (DE3) to IC50 for inhibition of His6-tagged p97 (unknown origin) expressed in Escherichia coli BL21 (DE3).
For assay [2], the species on record is Homo sapiens. Description: Selectivity ratio of IC50 for inhibition of His6-tagged p97 C522T mutant (unknown origin) expressed in Escherichia coli BL21 (DE3) to IC50 for inhibition of His6-tagged p97 (unknown origin) expressed in Escherichia coli BL21 (DE3).
In the next assay the test system is Saccharomyces cerevisiae. Put plainly: Selectivity ratio of IC50 for inhibition of yeast Cdc48 T532C mutant to IC50 for inhibition of yeast Cdc48.
A short description of assay [3]: Selectivity ratio of IC50 for hamster NSF to IC50 for His6-tagged p97 (unknown origin) expressed in Escherichia coli BL21 (DE3).

Bounds are passed on as bounds.

Consider `C=CC(=O)Nc1ncnc2c1c(-c1ccccc1)nn2C(C)(C)C`, for which the Selectivity ratio is above 100 in the assay filed under Homo sapiens [1], above 100 in the assay listed under Homo sapiens [2], 30 in the assay on Saccharomyces cerevisiae and above 100 in assay [3].

The values above are taken from ChEMBL document CHEMBL4732155 (Eur J Med Chem, 2021).
